# Yeast mating assay 1: variants of the scFv Ab-14

Target peptide (SARS-CoV-2 spike, HR2 region): PDVDLGDISGINAS

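The parent was found by panning a naive human phage display library on the peptide. AAYL49 was designed without a model: most single CDR substitutions and a random sample of double and triple ones. AlphaSeq pools MATa yeast showing the antibodies with MATalpha yeast showing the peptide. Mating (16 h, 30 °C) was followed by selection of diploids and sequencing of their barcodes. Each replicate has its own calibration line, from reference interactions of the BCL2 family. The assay was run in three technical replicates.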

Ab-14 is the parent antibody, in scFv form: VH, then a 15-residue (Gly4Ser)3 linker, then VL. The light chain is unchanged in all variants.
VH: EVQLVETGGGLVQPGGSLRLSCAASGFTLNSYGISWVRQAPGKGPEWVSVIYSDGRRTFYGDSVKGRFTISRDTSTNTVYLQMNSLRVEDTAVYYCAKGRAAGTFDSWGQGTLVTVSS
VL: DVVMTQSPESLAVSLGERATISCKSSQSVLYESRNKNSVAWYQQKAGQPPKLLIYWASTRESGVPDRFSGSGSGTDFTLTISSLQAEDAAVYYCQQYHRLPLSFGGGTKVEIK

Variants are written as CDR1, CDR2 and CDR3 of the heavy chain (limits as in the source). Parent: GFTLNSYGIS, VIYSDGRRTFYGDSVK, GRAAGTFDS. Values are log10 of the apparent Kd in nM; lower means stronger binding. A mean of the replicates is given; it leaves out those without a signal. "ND" marks a missing value. The strain was present, yet no cells mated with the target were sequenced in that replicate, which points to weak or no binding. As a blank, each scFv also met three strains without target: over library AAYL49, 15% of these pairings were detected, typically at 4.06 and seldom below 2.83. Parent in this assay: reference entry 0.65, copy in this library 4.11 (one replicate of three).

{"CDR-H1": "GFTLNSYGIS", "CDR-H2": "VIYSTGQRTFYGDSVK", "CDR-H3": "GRIAGTFDS", "log10 Kd, replicates": "ND / 2.09 / ND", "mean log10 Kd (nM)": "2.09"}
{"CDR-H1": "KFTLNSRGIS", "CDR-H2": "VIYSDGRRTFYGDSVK", "CDR-H3": "GRAAGTFDT", "log10 Kd, replicates": "ND / ND / 4.00", "mean log10 Kd (nM)": "4.00"}
{"CDR-H1": "GFTRNSYGIS", "CDR-H2": "VIYSDGRRTFYGDSVK", "CDR-H3": "GRAAITFDI", "log10 Kd, replicates": "ND / ND / ND", "mean log10 Kd (nM)": "ND"}
{"CDR-H1": "GFQKNSYTIS", "CDR-H2": "VIYSDGRRTFYGDSVK", "CDR-H3": "GRAAGTFDS", "log10 Kd, replicates": "5.87 / ND / 3.91", "mean log10 Kd (nM)": "4.89"}
{"CDR-H1": "GLTLNTYGIS", "CDR-H2": "VIYSDGRRTFYGDSVK", "CDR-H3": "GRAAGTFDV", "log10 Kd, replicates": "1.74 / 1.73 / 1.91", "mean log10 Kd (nM)": "1.79"}
{"CDR-H1": "GFTLNSVGIS", "CDR-H2": "VIYSDFRRTFYGDSVK", "CDR-H3": "GRKAGTFDS", "log10 Kd, replicates": "ND / ND / ND", "mean log10 Kd (nM)": "ND"}
{"CDR-H1": "GFTLNSYGIP", "CDR-H2": "VIYSDGRRTFYGDSVK", "CDR-H3": "GRAAGTFEK", "log10 Kd, replicates": "ND / ND / ND", "mean log10 Kd (nM)": "ND"}
{"CDR-H1": "GFTWNSYGIS", "CDR-H2": "VIYSDGIRGFYGDSVK", "CDR-H3": "GRAAGTFDS", "log10 Kd, replicates": "ND / ND / ND", "mean log10 Kd (nM)": "ND"}
{"CDR-H1": "GFTENSYGIT", "CDR-H2": "VIYSDGRRTFYGDSVK", "CDR-H3": "GRQAGTFDS", "log10 Kd, replicates": "3.76 / ND / ND", "mean log10 Kd (nM)": "3.76"}
{"CDR-H1": "GFTTNSYGIS", "CDR-H2": "VIYSDNRRTFYGDSVK", "CDR-H3": "GRAAGTFDC", "log10 Kd, replicates": "ND / 3.93 / 4.93", "mean log10 Kd (nM)": "4.43"}
{"CDR-H1": "GFTLNSYGIS", "CDR-H2": "WIYSDHRRTFYGDSVK", "CDR-H3": "GRAAITFDS", "log10 Kd, replicates": "4.95 / 5.26 / ND", "mean log10 Kd (nM)": "5.11"}
{"CDR-H1": "GMTLNSYGIS", "CDR-H2": "VIYSDGRRTFYGDTVK", "CDR-H3": "GRAAGTFDW", "log10 Kd, replicates": "ND / ND / ND", "mean log10 Kd (nM)": "ND"}
{"CDR-H1": "GFTLNSYGIS", "CDR-H2": "VIYSDGRRTAYGDSVK", "CDR-H3": "GRAVGTFDS", "log10 Kd, replicates": "ND / ND / ND", "mean log10 Kd (nM)": "ND"}
{"CDR-H1": "GFTLNSYGIS", "CDR-H2": "PIYSMSRRTFYGDSVK", "CDR-H3": "GRAAGTFDS", "log10 Kd, replicates": "4.58 / 3.87 / 4.03", "mean log10 Kd (nM)": "4.16"}
{"CDR-H1": "YFTLNSYGIS", "CDR-H2": "VILSDGRRTFYGDSVK", "CDR-H3": "GRATGTFDS", "log10 Kd, replicates": "ND / ND / ND", "mean log10 Kd (nM)": "ND"}
{"CDR-H1": "GFTLNSYGIS", "CDR-H2": "VIYSDGRRTLYGYSVK", "CDR-H3": "GRAAGTFDS", "log10 Kd, replicates": "ND / ND / ND", "mean log10 Kd (nM)": "ND"}
{"CDR-H1": "GFTLNSYGIS", "CDR-H2": "VIYSDGRRTHYGDSVK", "CDR-H3": "YRAAGCFDS", "log10 Kd, replicates": "ND / ND / ND", "mean log10 Kd (nM)": "ND"}
{"CDR-H1": "PFKLNSYVIS", "CDR-H2": "VIYSDGRRTFYGDSVK", "CDR-H3": "GRAAGTFDS", "log10 Kd, replicates": "ND / ND / ND", "mean log10 Kd (nM)": "ND"}

2 of these entries, quoted again:

| CDR-H1 | CDR-H2 | CDR-H3 | log10 Kd, replicates | mean log10 Kd (nM) |
|---|---|---|---|---|
| GLTLNTYGIS | VIYSDGRRTFYGDSVK | GRAAGTFDV | 1.74 / 1.73 / 1.91 | 1.79 |
| GMTLNSYGIS | VIYSDGRRTFYGDTVK | GRAAGTFDW | ND / ND / ND | ND |

Reference: Engelhart et al. 2022, doi:10.1038/s41597-022-01779-4. File: FLAb, binding data.